Source: PubChem
PGC1a acetyl inh: inhibitors of PGC1a acetylation signal, primary screen, cell-based, U2OS, AlphaScreen, inhibitor mode. AlphaScreen anti-acetyl-lysine; with virally co-expressed GCN5 acetyltransferase. inhibition, % at 15.6 µM. actives 0.17% (n = 350,000). AID 651687, 2012;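 active = every replicate shows inhibition of at least 40%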;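 note: 0% = neutral control wells and 100% = positive control wells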
miR-122 sensor: miR-122 Renilla sensor signal increase in Huh7, primary screen, miR-122 inhibitor project, cell-based, single point, plate reader; actives 0.3% (n = 340,000); activation (reporter increase), % at 12.5 µM; AID 602342, 2012; Huh7 miR-122 Renilla luciferase sensor, 48 h; neutral wells = 0, positive control = 100;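 active = mean replicate activation score at least 90 and every replicate individually at or above 90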;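 note: higher luciferase means less miR-122 activity so hits act as miR-122 inhibitors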
FN deposit inh: inhibitors of fibronectin matrix deposition, primary screen, AH1F cells, Alexa488-fibronectin fluorescence, plate reader; AH1F fibroblasts, overnight; inhibition, % at 12.6 µM; actives 0.086% (n = 350,000); AID 743247, 2014;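 active = mean inhibition across replicates of 30% or more, regardless of how many single replicates reach that level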;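 note: positive control wells lacked labelled fibronectin entirely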
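test system = AH1F fibroblasts assembling fluorescent fibronectin matrix | quantity = 10000 AH1F cells per well | buffer or medium = DMEM plus 2% serum, read in PBS | doses = single dose, pinned | incubation = 1 h cell attachment, overnight exposure to compound and label | detection = fluorescence at 485 nm excitation, 525 nm emission | read-out basis = inhibition from reduced deposited-fibronectin fluorescence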
HIV Env fusion: inhibitors of HIV-1 Env-driven cell-cell fusion, primary screen, HeLa-JRFL effector, CEM21 target cells, luciferase; inhibition, % at 12.3 µM; actives 1.1% (n = 360,000); AID 651610, 2012;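 active = mean replicate inhibition score of at least 50 and every replicate individually at or above 50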;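 note: 0% = plate neutral controls and 100% = maraviroc near 300 nM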
Yeast UUG start: modulators of yeast start codon fidelity, primary screen, whole organism, S. cerevisiae, single point, plate reader. S. cerevisiae UUG-firefly luciferase reporter, luminescence/redox ratio. activity score, % at 18.7 µM. hit rate 0.13% among 350,000;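 active = replicate mean at a twofold rise or more, about +100% in these data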;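 also: firefly luciferase made from a UUG start codon reports start codon fidelity; reporter light over untreated wells divided by growth signal over untreated wells; some hits fall short of that in this replicate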
Cneo AK release: Cryptococcus neoformans cell lysis inducers, primary screen, AK release luminescence, single concentration; C. neoformans lysis, adenylate kinase release luminescence, 4 h; normalised: neutral wells 0, clomiphene wells 100; lysis activity, % at 15 µM; actives 0.2% (n = 360,000); AID 651654, 2012;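 active = mean lysis activity across replicates of at least 80%, whatever share of replicates individually reach that level; inactive = mean lysis activity below 80%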
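Material: C. neoformans cells | Amount: Yeast cell density of 5 × 10^6 cells/mL | Medium: Fresh YPD growth medium | Dosing: Single dose | Times: Static 4 h at 37 °C with compound, 1 h detection | Detection: AK luminescence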
* marks the source's active call; other numbers are inactive results; . = not tested or not shown; [ ] = dose if it differs, or a comment. Rows were chosen to be rich in hits. Some 1.5% of all compounds tested hit in one or more screens of this group.

#	Structure	PGC1a acetyl inh	miR-122 sensor	FN deposit inh	HIV Env fusion	Yeast UUG start	Cneo AK release
1	CNC(=O)C[C@H]1CC[C@H]2[C@@H](COc3ccc(NC(=O)Nc4ccccc4)cc3C(=O)N2C)O1	5	33[16.7 µM]	-9	-22[16.7 µM]	9	110*
2	Cc1ccccc1-n1c(=O)[nH]c(=O)c2c(N)c(C(=O)c3ccc(Cl)cc3)sc21	.	.	-20	27	.	.
3	CCN(c1ccc(OCC(=O)OCC(=O)c2c(N)n(C)c(=O)n(C)c2=O)cc1)S(=O)(=O)c1ccccc1	-4	1	.	9	-2	1
4	Cc1nc(SCc2nc3cc(Cl)c(F)cc3[nH]2)c2oc3ccccc3c2n1	-1	4	.	66*	-15	-1
5	N=c1c2c(-c3ccccc3)c(-c3ccccc3)n(Cc3ccco3)c2ncn1CCCn1ccnc1	.	-4	13	25	-23	8
6	N=c1c2c(-c3ccccc3)c(-c3ccccc3)n(Cc3ccco3)c2ncn1CCCN1CCOCC1	-9	.	4	75*	.	.
7	Cn1nc(C(C)(C)C)cc1NC(=O)C1(C)CCN1C(=O)Cc1ccc(-c2ccccc2)cc1 (stereo not given)	8	-3	-1	62*	-6	2
8	CC(C)CC(=O)N1CCN(C(=O)c2ccco2)CC1	11	.	19	13	.	.
9	Cc1c(O)nc(SCC(=O)Nc2ccc3c4c(cccc24)CC3)n(-c2ccccc2)c1=O	.	.	-18	19	.	.
10	COc1cc(NS(=O)(=O)c2ccc(NC(=S)NC(=O)c3ccco3)cc2)nc(OC)n1	0	243*	-3	2	-10	0
11	COc1cc(NS(=O)(=O)c2ccc(NC(=O)c3ccco3)cc2)nc(OC)n1	-13	2	11	-8	-18	2
12	CN1CCN(CCCCOc2ccc(F)cc2)CC1	-1	-5	-3	-59	-21	-3
13	CC1CN(c2nc3ccccc3nc2SCC(=O)Nc2cccc(C(F)(F)F)c2)CC(C)O1 (stereo not given)	-15	.	12	64*	-21	1
14	COc1ccc(OCCNc2cc(Cl)ccc2[N+](=O)[O-])cc1	-9	-5	.	.	-10	-3
15	O=[N+]([O-])c1ccc(Sc2cccc[n+]2[O-])c2nonc12	.	.	51*	-130	.	.
16	CC1CC(C)CN(S(=O)(=O)c2ccc(Oc3ccc([N+](=O)[O-])cc3)cc2)C1 (stereo not given)	-2	-5	-6	56*	-2	1
17	COc1ccccc1C(=O)Nc1ccc2c(c1)C(=O)N(C)[C@H]1CC[C@H](CC(=O)NCc3ccc(Cl)c(Cl)c3)O[C@H]1CO2	-6	308*[16.7 µM]	2	.	-11	2
18	COc1ccccc1C(=O)Nc1ccc2c(c1)C(=O)N(C)[C@H]1CC[C@@H](CC(=O)NCc3ccc(Cl)c(Cl)c3)O[C@@H]1CO2	-25	51[16.7 µM]	8	.	-18	0
19	COc1ccccc1CNC(=O)C[C@@H]1CC[C@@H]2[C@H](COc3ccc(NC(C)=O)cc3C(=O)N2C)O1	1	10[16.7 µM]	-5	0[16.7 µM]	16	101*
20	O=C(OCc1ccc(Cl)c(Cl)c1)c1cccnc1Cl	12	-4	7	-8	-5	-1

Looked up by compound from above, 3 records:
#	Structure	PGC1a acetyl inh	miR-122 sensor	FN deposit inh	HIV Env fusion	Yeast UUG start	Cneo AK release
11	COc1cc(NS(=O)(=O)c2ccc(NC(=O)c3ccco3)cc2)nc(OC)n1	-13	2	11	-8	-18	2
6	N=c1c2c(-c3ccccc3)c(-c3ccccc3)n(Cc3ccco3)c2ncn1CCCN1CCOCC1	-9	.	4	75*	.	.
15	O=[N+]([O-])c1ccc(Sc2cccc[n+]2[O-])c2nonc12	.	.	51*	-130	.	.

Back to the main list, starting 2 compounds before the break.
#	Structure	PGC1a acetyl inh	miR-122 sensor	FN deposit inh	HIV Env fusion	Yeast UUG start	Cneo AK release
19	COc1ccccc1CNC(=O)C[C@@H]1CC[C@@H]2[C@H](COc3ccc(NC(C)=O)cc3C(=O)N2C)O1	1	10[16.7 µM]	-5	0[16.7 µM]	16	101*
20	O=C(OCc1ccc(Cl)c(Cl)c1)c1cccnc1Cl	12	-4	7	-8	-5	-1
21	CCCCCn1c2c(c(=N)c3ccccc31)CCC2	2	-5	8	19	-6	6
22	CCCCCCCCCCn1c2c(c(=N)c3c1CCC3)CCC2	.	-66	3	69*	-6	0
23	CCCCCCCCn1c2c(c(=N)c3ccccc31)CCC2	23	-16	-7	56*	.	.
24	Cc1ccc(-c2ccc(S(=O)(=O)N3CCCC3)cc2)cc1	-8	.	12	-4	.	.
25	O=C(Nc1ccc(S(=O)(=O)Nc2nccs2)cc1)c1cc(-c2ccccc2Cl)nc2ccccc12	-6	104*	.	.	.	.
26	CCCCNCc1nc2ccccc2c(=O)[nH]1	11	.	0	6	.	.
27	CCCC(=O)Nc1ccc2c(c1)OC[C@@H](C)N(C(=O)CN(C)C)C[C@H](C)[C@@H](OC)CN(C)C2=O	5	.	-14	59*[16.7 µM]	.	-2
28	CO[C@H]1CN(C)C(=O)c2cc(NS(=O)(=O)c3ccc(C)cc3)ccc2OC[C@@H](C)N(C(=O)NC(C)C)C[C@@H]1C	-6	.	-7	-1[16.7 µM]	.	97*
29	CO[C@@H]1CN(C)C(=O)c2ccc(NS(C)(=O)=O)cc2OC[C@@H](C)N(C(=O)C2CCCCC2)C[C@H]1C	-10	.	-16	66*[16.7 µM]	9	-66
30	COCC(=O)N1C[C@H](C)[C@@H](OC)CN(C)C(=O)c2ccc(NS(C)(=O)=O)cc2OC[C@@H]1C	-6	.	3	10[16.7 µM]	.	98*
31	CO[C@@H]1CN(C)C(=O)c2ccc(NS(C)(=O)=O)cc2OC[C@H](C)N(C(=O)C2CCCCC2)C[C@H]1C	6	.	-13	-27[16.7 µM]	5	5
32	O=C(C1CCCN1S(=O)(=O)c1cccc2cccnc12)N1CCc2ccccc2C1 (stereo not given)	-7	5	-4	1	-10	3
33	O=C(Nc1nc2c(s1)CCc1ccccc1-2)c1ccco1	-18	98*	.	-104	-7	-6
34	Cc1csc2c(=O)sc(NC(=O)c3ccco3)nc12	7	117*	-18	-10	-20	-2
35	O=C(Nc1nc2ccc(Cl)cc2s1)c1ccco1	2	116*	9	-161	-20	-5
36	COc1cccc(C2C(C#N)=C(N)N(c3ncn[nH]3)C3=C2C(=O)CCC3)c1 (stereo not given)	.	.	3	-13	.	.
37	COc1ccc(CN(C)C[C@@H]2Oc3ccc(NC(=O)Cn4cnnn4)cc3C(=O)N([C@@H](C)CO)C[C@@H]2C)cc1	1	-2[16.7 µM]	.	10[16.7 µM]	.	0
38	COc1ccc(N(C(=O)c2ccco2)S(=O)(=O)c2cc(Cl)c(Cl)cc2Cl)cc1	8	134*	.	-11	.	.
39	O=C(c1cccc(Cl)c1)N1CCCC(c2ccc(Cl)cc2)=N1	-5	10	.	.	4	2
40	CSc1ncnc2c1ncn2CCCN[C@H](C)c1cccc2ccccc12	3	0	-6	58*	-13	-1
41	CCSc1sccc1C1C(C#N)=C(N)N(c2cccnc2)C2=C1C(=O)CC(C)(C)C2 (stereo not given)	-6	-5	5	-23	-7	1
42	NNC(=O)c1ccc(N2CCc3ccccc32)c([N+](=O)[O-])c1	-2	1	1	9	-15	1
43	Nc1ncnc(N2CCc3ccccc32)c1[N+](=O)[O-]	24	-1	2	67*	-14	-1
